Molecular target: human GLP-1 receptor (human) (UniProt P43220)
Test: cell-based or functional assay

Substance: imidazo-acetyl exendin-4 (CA-exendin-4) (from UniProt P26349) (peptide)
- cAMP assay EC50: 0.03 nM
- cAMP assay Relative activity: 100 % vs. Exd4

— US20180271995A1, “A PROTEIN CONJUGATE COMPRISING MULTIPLE PHYSIOLOGICALLY ACTIVE POLYPEPTIDES AND AN IMMUNOGLOBULIN FC REGION” (HANMI PHARM. CO., LTD., priority 2015, published 2018)
